Source: PubChem BioAssay AID488796 (The Scripps Research Institute Molecular Screening Center, 2010)
Only a part is listed here, and it is no random draw. The source made the active and inactive calls.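 How the source made its calls: active means mean inhibition across replicates above the hit cutoff set by the earlier primary screen (cut at about 15% in these data); inactive means the rest.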

The chains behind the UniProt entries cited, without tags or fusion partners.
UniProt Q9UM07, whole entry: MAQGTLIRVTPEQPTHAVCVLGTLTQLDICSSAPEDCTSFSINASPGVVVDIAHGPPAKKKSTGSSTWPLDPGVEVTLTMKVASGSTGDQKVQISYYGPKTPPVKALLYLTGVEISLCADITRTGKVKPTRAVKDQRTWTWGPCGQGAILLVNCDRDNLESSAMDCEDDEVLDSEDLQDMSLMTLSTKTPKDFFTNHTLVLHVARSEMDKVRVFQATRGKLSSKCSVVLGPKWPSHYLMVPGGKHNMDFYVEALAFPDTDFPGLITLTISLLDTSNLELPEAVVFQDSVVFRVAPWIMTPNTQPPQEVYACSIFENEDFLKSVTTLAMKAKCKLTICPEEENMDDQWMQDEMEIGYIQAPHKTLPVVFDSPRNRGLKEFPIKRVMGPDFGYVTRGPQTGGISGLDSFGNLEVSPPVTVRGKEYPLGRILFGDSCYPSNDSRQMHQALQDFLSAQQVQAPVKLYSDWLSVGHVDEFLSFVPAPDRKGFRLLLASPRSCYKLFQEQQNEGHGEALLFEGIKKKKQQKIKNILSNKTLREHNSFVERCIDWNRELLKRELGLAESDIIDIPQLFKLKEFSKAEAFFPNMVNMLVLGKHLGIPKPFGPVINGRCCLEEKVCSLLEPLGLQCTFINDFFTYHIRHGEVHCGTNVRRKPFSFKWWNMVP

Biological target: Protein-arginine deiminase type-4 (Homo sapiens) (UniProt Q9UM07)
Assay: protein arginine deiminase 4 blockade, retest – biochemical, fluorescence polarization, confirmation (AID 488796);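 further: inhibitors block active-site labeling by the probe so polarization falls; 0% = PAD4 with probe and DMSO and 100% = probe without PAD4 enzyme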
Conditions: recombinant PAD4, RCA probe fluorescence polarization; at 6.36 µM; active compounds read high

Row | Structure (SMILES) | inhibition
1 | O=[N+]([O-])c1cc([N+](=O)[O-])c(Nc2ccccn2)c([N+](=O)[O-])c1 | active: 33.7%
2 | CC1=C2N=C(C=C3N=C(C(C)=C4[N-][C@@](C)([C@@H]5N=C1[C@](C)(CCC(=O)NC[C@@H](C)OP(=O)([O-])O[C@H]1[C@@H](O)[C@@H](n6cnc7cc(C)c(C)cc76)O[C@@H]1CO)[C@H]5CC(N)=O)[C@@](C)(CC(N)=O)[C@@H]4CCC(N)=O)[C@@](C)(CC(N)=O)[C@@H]3CCC(N)=O)C(C)(C)[C@@H]2CCC(N)=O.[C-]#N.[Co+3] | inactive: 9.21%
